Source: publication PMC4873368 (Cancer research, 2016)

Tested on: human T cells
Test: Cytokine rescue of human T cell proliferation from trametinib
Type: cell-based
Details: aAPCs, 200 nM trametinib, 7 days; IL-2 20 U/ml, IL-7 2 ng/ml, IL-15 10 ng/ml, IL-21 100 ng/ml, IL-27 50 ng/ml, ALT-803 35.7 ng/ml

IL-2: human IL-2 cytokine
Rescue of human T cell proliferation in the presence of trametinib: able to individually rescue the proliferation
